Measured values taken from publication PMC8050233, “Biased cytochrome P450-mediated metabolism via small-molecule ligands binding P450 oxidoreductase” (Nature Communications, 2021).
Where “and” joins values, the source holds several entries; their conditions need not be identical. Identical values can stand only once. Like-named read-outs stand apart in the source and are kept apart here.

Amino acid sequences for entries named in this document (tags omitted). A change or cut given only in a name is not applied to a line headed by its entry.
UniProt C5YJG8: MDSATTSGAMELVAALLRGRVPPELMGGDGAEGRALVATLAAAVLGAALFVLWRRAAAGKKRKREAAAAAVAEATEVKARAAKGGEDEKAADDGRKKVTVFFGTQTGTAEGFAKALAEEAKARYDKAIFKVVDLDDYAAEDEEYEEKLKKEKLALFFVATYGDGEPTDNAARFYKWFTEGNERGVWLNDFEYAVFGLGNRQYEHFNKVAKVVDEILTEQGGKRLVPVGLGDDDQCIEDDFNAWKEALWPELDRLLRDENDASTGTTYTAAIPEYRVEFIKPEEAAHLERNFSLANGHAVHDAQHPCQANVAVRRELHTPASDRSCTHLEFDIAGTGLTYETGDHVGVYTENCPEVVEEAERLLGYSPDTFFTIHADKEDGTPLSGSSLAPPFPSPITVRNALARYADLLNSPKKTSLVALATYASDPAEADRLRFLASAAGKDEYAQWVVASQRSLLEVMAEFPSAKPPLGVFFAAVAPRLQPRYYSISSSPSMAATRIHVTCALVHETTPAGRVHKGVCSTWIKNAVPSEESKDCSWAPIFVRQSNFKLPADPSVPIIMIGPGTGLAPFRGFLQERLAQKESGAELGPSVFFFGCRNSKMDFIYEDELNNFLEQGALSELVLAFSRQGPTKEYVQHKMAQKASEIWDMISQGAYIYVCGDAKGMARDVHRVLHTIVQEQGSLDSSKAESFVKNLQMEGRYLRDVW

Columns and labels:
human POR [1] = target: T1, human POR (Homo sapiens, UniProt A0A9L9PY49); experiment: cytochrome c reduction, absorbance […] nm; type: biochemical; conditions: apparent activation; 40 μM cytochrome c, 100 μM NADPH, pH 7.5, proteoliposomes
T1 construct: full-length wild type in pET22b, expressed in E. coli BL21(DE3); bacterial membranes reconstituted in DLPC/DLPG liposomes without further purification, or used as microsomes
T1 sequence (A0A9L9PY49 1-680): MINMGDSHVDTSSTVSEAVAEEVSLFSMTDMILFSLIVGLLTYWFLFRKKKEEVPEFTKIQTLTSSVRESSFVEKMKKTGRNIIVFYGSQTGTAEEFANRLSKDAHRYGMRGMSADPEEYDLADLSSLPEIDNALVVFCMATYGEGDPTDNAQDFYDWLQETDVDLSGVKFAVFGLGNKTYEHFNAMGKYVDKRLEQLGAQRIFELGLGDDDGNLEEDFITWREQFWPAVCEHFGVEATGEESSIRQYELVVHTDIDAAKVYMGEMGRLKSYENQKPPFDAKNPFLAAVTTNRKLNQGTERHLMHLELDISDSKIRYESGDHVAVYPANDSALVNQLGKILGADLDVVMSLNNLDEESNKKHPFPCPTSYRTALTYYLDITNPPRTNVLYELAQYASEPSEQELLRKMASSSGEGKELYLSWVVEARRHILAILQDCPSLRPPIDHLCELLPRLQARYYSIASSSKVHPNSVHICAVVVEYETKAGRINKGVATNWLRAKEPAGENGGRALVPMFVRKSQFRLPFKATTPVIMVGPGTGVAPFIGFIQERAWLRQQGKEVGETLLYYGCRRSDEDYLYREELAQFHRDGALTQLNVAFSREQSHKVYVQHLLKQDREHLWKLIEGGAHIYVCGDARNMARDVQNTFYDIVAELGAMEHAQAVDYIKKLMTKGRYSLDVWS

SbPOR2b = target: T2, SbPOR2b (Sorghum bicolor, UniProt C5YJG8); set-up: POR proteoliposome reduction of cytochrome c, MTT (absorbance) or resazurin (fluorescence), normalized to DMSO control
T2 construct: gene CPR; full-length, expressed in E. coli NiCo21(DE3) from pET52b, purified on 2',5'-ADP Sepharose and Q-sepharose, in DLPC/DLPG proteoliposomes; mutant in lipid nanodiscs
Procedure: (§1) Using Cytc, MTT or RS as electron acceptors the change in absorbance (550 nm for Cytc and 610 nm for MTT) or emission (570 nm excitation, 585 nm emission for RS) was monitored as a function of time. Cytc and RS concentrations were both close to KM of the given electron acceptor, while MTT and NADPH were in excess amounts. Concentrations were 40 μM Cytc, 10 μM RS, 500 μM MTT and 100 μM NADPH unless otherwise stated. POR activity was extracted from the slope of the linear region of each trace. Michaelis–Menten kinetics and IC50 curves were performed under identical conditions using relevant substrate and ligand concentrations. All measurements were repeated at least three times and subsequently normalized to DMSO control measurements. […] Fluorescence intensities of resorufin in the presence of rifampicin were corrected according to a linear calibration curve (see Supplementary Fig. 7). Given that point-mutations in human POR can lead to altered specificity towards CYP isoforms[4],[19], we tested whether small-molecule ligands can bias the specificity of human POR to reduce diverse electron acceptors. […] (MTT)[32] (Fig. 2A). Each of the assays relies on spectral changes of the electron acceptor upon reduction by POR and thus directly reports on POR activity towards reducing the specific redox partner (see Supplementary Methods for details). Being comparative these assays exclude artefacts that may originate from potential FMN loss. […] POR plays an omnipotent role as an electron donor to microsomal CYPs in all eukaryotes and serves as a key metabolic hub in plants as well as humans. To test whether the effect of small-molecule ligand binding to POR is an omnipotent phenomenon underlying the regulation of POR in organisms from different kingdoms, we performed binding assays based on intrinsic fluorescence quenching and dose-response experiments on POR2b from the crop plant Sorghum bicolor (SbPOR2b) in proteoliposomes (Fig. 3A, B, Supplementary Fig. 6 and Supplementary Table 3).

human POR [2] = target: T1, human POR; set-up: POR proteoliposome reduction of cytochrome c, MTT (absorbance) or resazurin (fluorescence), normalized to DMSO control
Procedure: as §1

SMILES: O=P1(N(CCCl)CCCl)NCCCO1 (centres unmarked) [cyclophosphamide]
- % of control at 100 μM (human POR [1]): 119 ± 14%
- % of control remaining (SbPOR2b; 10 µM): 100.1 and 98.1
- % of control remaining (SbPOR2b; 100 µM): 103.9 and 108.3
- % of control remaining (human POR [2]; 10 µM): 100.3 and 115
- % of control remaining (human POR [2]; 100 µM): 99.6 and 103.6
